{
  "source": "patent US10828349B2",
  "about": "“Treatment of microbial infections” (NATIONAL UNIVERSITY OF IRELAND, GALWAY, priority 2011, dated 2020)",
  "experiment": "effect of milk pasteurisation heating on the enzymatic components",
  "type": "physicochemical",
  "conditions": "held 15-600 seconds; activity read by E. coli total viable counts in milk after 24 hrs at 37° C.",
  "description": "An attempt was made to determine the effects of the milk pasteurisation process on the enzymatic components, which can be used to produce the reactive oxygen species of the composition of the present invention. Working concentrations of the enzymes were heated in 50 μl volumes to 72° C. and held for 15, 30, 60, 300 or 600 seconds.\nAppropriate concentrations of these aliquots were then transferred to milk containing the necessary components of the system and ˜10^8 cells/ml E. coli. Total viable counts were performed after 24 hrs incubation at 37° C. This allowed the determination of whether the enzymes were still active after heating.",
  "data": [
    {"substance": "Glucose oxidase", "values": [
      {"measurement": "enzyme activity after heating to 72° C.", "value": "demonstrated activity after 300 seconds heating"}
    ]}
  ]
}
